# According to article PMC3373380 (BMC Pharmacology, 2012):
# By UniProt entry, the sequences of proteins in these tests, tags left out. Residues count along the entry.
# UniProt A0A075TEP6, 1-766: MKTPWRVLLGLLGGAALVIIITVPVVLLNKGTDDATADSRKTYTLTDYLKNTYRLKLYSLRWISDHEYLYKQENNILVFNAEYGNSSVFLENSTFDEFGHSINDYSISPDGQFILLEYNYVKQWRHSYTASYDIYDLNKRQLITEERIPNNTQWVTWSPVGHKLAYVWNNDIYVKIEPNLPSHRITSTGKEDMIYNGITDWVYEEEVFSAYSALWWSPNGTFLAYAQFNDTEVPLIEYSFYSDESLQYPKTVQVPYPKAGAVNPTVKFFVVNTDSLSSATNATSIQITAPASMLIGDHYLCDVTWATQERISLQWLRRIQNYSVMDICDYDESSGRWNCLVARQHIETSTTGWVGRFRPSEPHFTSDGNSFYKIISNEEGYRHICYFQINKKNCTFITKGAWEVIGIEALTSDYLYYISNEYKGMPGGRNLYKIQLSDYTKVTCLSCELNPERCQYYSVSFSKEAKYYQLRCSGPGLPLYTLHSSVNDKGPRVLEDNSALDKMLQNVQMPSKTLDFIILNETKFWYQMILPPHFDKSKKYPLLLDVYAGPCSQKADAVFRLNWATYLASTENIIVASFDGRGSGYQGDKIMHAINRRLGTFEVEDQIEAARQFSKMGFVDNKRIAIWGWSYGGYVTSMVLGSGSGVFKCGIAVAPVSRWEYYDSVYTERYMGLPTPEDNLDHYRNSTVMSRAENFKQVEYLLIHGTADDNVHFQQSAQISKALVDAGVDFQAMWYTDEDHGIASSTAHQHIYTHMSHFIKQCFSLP
# Tests used:
# plasma DPP activity = conditions: 24-hours post dose; cited from earlier work
# cynomolgus monkey DPP4 = biological target: T1, cynomolgus monkey DPP4 (UniProt A0A075TEP6); assay: Steady-state inhibition of isolated cloned DPP4 at 37°C (gly-pro-pNA); format: biochemical; conditions: mean ± SD (n)
# T1 construct: made in house
compound,measurement,setting,value
"N[C@@H](CC(=O)N1CCn2c(nnc2C(F)(F)F)C1)Cc1cc(F)c(F)cc1F [Sitagliptin, reference compound]",inhibition of plasma DPP4 activity at trough needed to obtain maximal glucose lowering,plasma DPP activity,80%
same,Ki,cynomolgus monkey DPP4,15.6 ± 3.6 nM
